# Values of other authors in patent US9096606B2, “Quarternized buprenorphine analogs” (dated 2015).
# Chains of the proteins cited; added tags and fusions are not shown. Lines headed by an entry give the natural chain unless they say otherwise; changes in a name come on top.
# UniProt P41146: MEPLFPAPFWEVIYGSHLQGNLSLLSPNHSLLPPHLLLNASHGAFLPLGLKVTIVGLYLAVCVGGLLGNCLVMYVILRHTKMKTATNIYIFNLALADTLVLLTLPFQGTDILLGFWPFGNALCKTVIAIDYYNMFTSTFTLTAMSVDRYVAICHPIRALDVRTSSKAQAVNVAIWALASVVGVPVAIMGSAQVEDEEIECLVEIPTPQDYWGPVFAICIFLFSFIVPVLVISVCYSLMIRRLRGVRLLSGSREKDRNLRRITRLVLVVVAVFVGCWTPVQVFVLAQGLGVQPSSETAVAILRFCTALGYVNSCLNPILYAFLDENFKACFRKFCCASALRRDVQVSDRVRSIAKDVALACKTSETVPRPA
# Target: ORL-1 (Homo sapiens (Human), UniProt P41146)
# Settings: read-out: IC50 (at least partial agonist for ORL-1); S. Wnendt et al., Molec. Pharmacol. 1999
substance,measurement,value
7-benzylidenenaltrexone,IC50,10 µM
